{
  "sequences": {"note": "Sequences of proteins named here, by UniProt entry; tags and fusion partners are left off. A change or cut given only in a name is not applied to a line headed by its entry.", "UniProt Q9UNQ0": "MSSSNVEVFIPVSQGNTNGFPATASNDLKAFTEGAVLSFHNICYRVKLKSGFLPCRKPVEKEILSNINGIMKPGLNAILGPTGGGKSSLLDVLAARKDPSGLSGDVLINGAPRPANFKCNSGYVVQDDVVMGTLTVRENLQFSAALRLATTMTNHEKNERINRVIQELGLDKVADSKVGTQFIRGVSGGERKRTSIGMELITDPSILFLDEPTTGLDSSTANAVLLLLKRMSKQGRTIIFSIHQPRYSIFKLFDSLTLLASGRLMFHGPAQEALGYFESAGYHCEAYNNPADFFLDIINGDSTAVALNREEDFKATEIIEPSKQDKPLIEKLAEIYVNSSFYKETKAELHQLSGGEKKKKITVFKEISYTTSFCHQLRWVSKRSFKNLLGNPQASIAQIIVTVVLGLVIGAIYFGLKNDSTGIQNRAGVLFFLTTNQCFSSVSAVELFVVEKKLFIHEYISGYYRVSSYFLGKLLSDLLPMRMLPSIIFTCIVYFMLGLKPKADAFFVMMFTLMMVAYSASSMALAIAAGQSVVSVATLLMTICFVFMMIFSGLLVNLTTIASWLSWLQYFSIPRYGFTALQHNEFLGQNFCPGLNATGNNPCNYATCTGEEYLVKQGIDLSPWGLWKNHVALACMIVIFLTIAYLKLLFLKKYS"},
  "source": "ChEMBL document CHEMBL2010704",
  "about": "(J Med Chem, 2012)",
  "target": "Broad substrate specificity ATP-binding cassette transporter ABCG2 (Homo sapiens, UniProt Q9UNQ0)",
  "test": "Inhibition of ABCG2-mediated mitoxantrone efflux in HEK293 cells by flow cytometry",
  "format": "cell-based",
  "method_in_brief": "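HEK293-ABCG2 cells seeded at 1 × 10^5 cells/well and grown 48 h, then loaded with 5 μM mitoxantrone for 30 min at 37 °C with or without compound. Cells washed in PBS and trypsinized; intracellular fluorescence read by flow cytometry on at least 10,000 events. […] IC50 from a concentration range; mean ± SD, n ≥ 3.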",
  "note": "pIC50: −log10 of the molar value.",
  "data": [
    {"smiles": "COc1ccc(CCNC(=O)c2cc(=O)c3c(OCc4ccccc4)cccc3o2)cc1OC", "values": [
      {"measurement": "pIC50", "result": 6.77}
    ]}
  ]
}
